Values of other authors as cited in US20150250887A1, “METHOD OF PREPARING RESIN TINCTURES” (JALEVA PHARMACEUTICALS, LLC, priority 2012, published 2015).

Settings: pH about 7.4

For CCC(=O)N(c1ccccc1)C1CCN(CCc2ccccc2)CC1, the log D is given as 3.97.

Some compounds may have been tested in ways that are not shown here.
